Results taken from ChEMBL document CHEMBL4265983, “Discovery and biological evaluation of thiobarbituric derivatives as potent p300/CBP inhibitors” (Bioorg Med Chem, 2018).

Experiments:
Type in all cases: functional, cell-based
THP-1 = test: Antiproliferative activity against human THP1 cells after 72 hrs by CellTiter-Glo assay
RS4-11 = test: Antiproliferative activity against human RS4:11 cells after 72 hrs by CellTiter-Glo assay
MV4-11 = test: Antiproliferative activity against human MV4-11 cells after 72 hrs by CellTiter-Glo assay
Jurkat = test: Antiproliferative activity against human Jurkat cells after 72 hrs by CellTiter-Glo assay
MOLT-4 = test: Antiproliferative activity against human MOLT4 cells after 72 hrs by CellTiter-Glo assay
K562 = test: Antiproliferative activity against human K562 cells after 72 hrs by CellTiter-Glo assay
Kasumi 1 = test: Antiproliferative activity against human Kasumi-1 cells after 72 hrs by CellTiter-Glo assay
CCRF-CEM = test: Antiproliferative activity against human CEM cells after 72 hrs by CellTiter-Glo assay
MOLT-3 = test: Antiproliferative activity against human MOLT3 cells after 72 hrs by CellTiter-Glo assay
KOPN-8 = test: Antiproliferative activity against human KOPN8 cells after 72 hrs by CellTiter-Glo assay

Measured: Activity

Cc1ccc(N2C(=O)/C(=C\C=C\c3ccco3)C(=O)NC2=S)cc1Cl
active: THP-1 = Dose-dependent effect | RS4-11 = Dose-dependent effect | MV4-11 = Dose-dependent effect | Jurkat Dose-dependent effect | MOLT-4 = Dose-dependent effect | K562 = Dose-dependent effect | Kasumi 1 = Dose-dependent effect | CCRF-CEM Dose-dependent effect | MOLT-3 = Dose-dependent effect | KOPN-8 = Dose-dependent effect
